Results from patent US10329256B2, “(Hetero)aryl cyclopropylamine compounds as LSD1 inhibitors” (Oryzon Genomics, S.A., priority 2011, dated 2019).

System: THP-1 cells
Test: cells
Format: cell-based
Conditions: Homo sapiens, THP-1, 96 h
Description: THP-1 were purchased from DSMZ GmbH (Deutsche Sammlung von Mikroorganismen und Zellkulturen) and cultured in RPMI 1640 medium containing 10% of fetal bovine serum.
Serial dilutions of the compounds were prepared in DMSO and then further diluted in complete medium to generate solutions of concentrations that are double of the final concentration at which the cells will be exposed. 1 ml of these 2× concentrated solutions was added to the cells.
Each treated sample was split in two. […] Samples were incubated in the dark at 4° C. for 30-60 minutes and washed three times in PBS buffer containing 1% fetal bovine serum.
EC50 values were calculated by non-linear regression analysis.

## c1ccc([C@H]2C[C@@H]2NCC2CCNCC2)cc1 (relative stereo) [Example 5, (Trans)-2-phenyl-N-(piperidin-4-ylmethyl)cyclopropanamine hydrochloride]
  EC50: 7.4 nM

## c1ccc([C@H]2C[C@@H]2NC2CC3(CCNCC3)C2)cc1 (relative stereo) [Example 15, N-((trans)-2-phenylcyclopropyl)-7-azaspiro[3.5]nonan-2-amine]
  EC50: 2.1 nM

Where a name gives a salt, the structure may show the parent alone.
